Where two headings read alike, the source gives them in different places.
Tests used:
[1] = tested on: immature embryos of wheat (Triticum aestivum L) cv Bobwhite; experiment: Agrobacterium-mediated wheat transformation, glyphosate selection (transformation efficiency); assay type: cell-based; settings: 20 μM CuSO4 in MMS0C; Table 13
Source text: (§1) Immature embryos of wheat (Triticum aestivum L) cv Bobwhite were isolated from the immature caryopsis (wheat spikelets) 12-15 days after pollination, and cultured on CM4C (Table 2) for 1-8 days, most typically for 4-6. The embryos without embryogenic callus were selected for Agrobacterium inoculation.
A disarmed Agrobacterium strain C58 (ABI) harboring a binary vector was used for all the experiments. For the control experiments, cultures of Agrobacterium were initiated from glycerol stocks or from a freshly streaked plate and grown overnight at 26° C.-28° C. with shaking (approximately 150 rpm) to mid-log phase (about OD660=1-1.5) in liquid LB medium, pH 7.0 (Miller, 1972) containing 50 mg/L kanamycin, 50 mg/L streptomycin and spectinomycin, and 25 mg/L chloramphenicol with 200 μM acetosyringone (AS). The Agrobacterium cells were resuspended in the inoculation medium and the density was adjusted to an OD660 of 1. The immature embryos cultured in CM4C medium were transferred into sterile petri plates (16×20 mm) or wells of a 6-well cell culture plate (Costar Corporation, Cambridge, Mass.) containing 10 mL of inoculation medium per petri plate or 5 mL per cell culture cluster plate. An equal amount of the Agrobacterium cell suspension was added such that the final concentration of Agrobacterium cells was an OD660 of 0.5. […]

[2] = tested on: immature embryos of wheat; experiment: Agrobacterium-mediated wheat transformation, nptII (G418/kanamycin) selection (transformation efficiency); assay type: cell-based, Triticum aestivum L
Source text: as §1
A disarmed Agrobacterium strain C58 (ABI) harboring a binary vector was used for all the experiments. […] The Agrobacterium cells were resuspended in the inoculation medium and the density was adjusted to an OD660 of 1. […] An equal amount of the Agrobacterium cell suspension was added such that the final concentration of Agrobacterium cells was an OD660 of 0.5. In most experiments, pluronic F68 was added to the inoculation mixture at a final concentration of 0.01%. The ratio between the Agrobacterium and immature embryos (IEs) was about 10 mL: 20-200 IEs. The conditions for inoculation were temperatures from about 23° C.-26° C. with a duration from about 5-60 minutes.
After the inoculation period, the remaining Agrobacterium cells were removed from the explants by using the in-house vacuum equipment. A piece of sterile Whatman No. 1 filter paper (to fit the size of the petri plate) was placed in each of 60×15 or 60×20 mm petri dishes without additional liquid or agar-supplemented media. Two hundred microliters of sterile water was placed in the middle of the filter paper. […]

wheat callus cultures = settings: no glyphosate
Description: Five treatments were done: 1) control (0.1 μM Cu as in MS medium) without additional copper; 2) 2 μM copper, applied at delay and selection for 2 weeks total; 3) 2 μM Cu at 1st regeneration for 2 weeks; 4) 2 μM Cu at 2nd regeneration for 2 or more weeks; and 5) 2 μM Cu constantly present at all of these stages.

## O=S(=O)([O-])[O-].[Cu+2] [CuSO4, copper sulfate]
[1]
  average copper-treated/control ratio (TE): 2.6
[2]
  Independent transgenic events/explants: 33/108
Wheat callus cultures; 2 μM Cu at 1st Reg., 2 w.
  Shoots/Regenerable callus, ratio: 1.4
Wheat callus cultures; 2 μM Cu at 2nd Reg. (MMS0C), 2 w.
  Shoots/Regenerable callus, ratio: 2
Wheat callus cultures; 2 μM Cu at 2nd Reg., 2 w.
  1 shoot/callus: 10.8
Wheat callus cultures; 2 μM Cu at Delay/Sel., 2 w.
  Shoots/Regenerable callus, ratio: 1.6
Wheat callus cultures; 2 μM Cu at all stages, 6 w.
  Shoots/Regenerable callus, ratio: 1.2

From patent US20030154517A1, “Efficiency agrobacterium-mediated wheat transformation method” (priority 2001, published 2003)
